Source: PubChem
G9a inh: blocks human histone lysine methyltransferase G9a; Q96KQ7; G9a H3K9 monomethylation, AlphaScreen, 2 h; Potency, µM (series often up to 102 µM), without a hit: at the highest dose activity, negative = inhibition, most hits filed as inhibitors; 8.8% of 350,000 active; further: potency means the concentration at half of the fitted maximal effect; on the % scale 0 is the no-effect control and ±100 the full control effect; nearly all actives have a fitted effect of over 75% in size
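G9a (20 nM) preincubated 15 min RT with compounds, then 500 nM biotinylated H3K9 peptide and 20 uM SAM added; 2 h RT reaction. Monomethyl-H3K9 product detected by AlphaScreen with anti-H3K9me1 antibody, streptavidin donor and anti-rabbit IgG acceptor beads.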
LMNA splice mod: changes lamin A minigene splicing in HeLa cells | Potency, µM (titrated, usually from 46.1 µM), inactives show at the top dose ratio change, negative = inhibition, most hits filed as inhibitors | 0.01% of 200,000 active | HeLa LMNA splicing GFP/RFP minigene ratio, 48 h | AID 1487; active means well fitted inhibition curve with a large enough effect in the signal ratio, with a control signal flat, not every such curve was filed as active; inconclusive means small, poorly fitted or top-dose-only effect, or effect the other way, or a change in a side signal; the % refers to the signal ratio; further: potency means the concentration at half of the fitted maximal effect; on the % scale 0 is the no-effect control and ±100 the full control effect
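S3 HeLa cells stably expressing lamin A-EGFP splicing minigene plus DsRed2, 600 cells/well, 48 h compound exposure at 37C. Laser-scanning cytometry; analysed as GFP (500-530 nm)/RFP (575-640 nm) total intensity ratio; 0.5% DMSO vehicle.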
JMJD2E inh: JMJD2E (human) inhibition. B2RXH2. JMJD2E catalytic domain, FDH-coupled NADH fluorescence (FDH is formaldehyde dehydrogenase). Potency, µM (top dose mostly 57.1 µM), inactives show top-dose activity change, negative = inhibition, hits mostly inhibitors. 1.6% of 230,000 active. AID 2147; active means well fitted inhibition curve with a large enough effect, not every such curve was filed as active; inconclusive means small, poorly fitted or top-dose-only effect, or another doubt; inactive means no such curve, though single readings can be large or run the other way;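 further: potency means the concentration at half of the fitted maximal effect; 0% = wells with enzyme and -100% = buffer wells without enzyme; nearly all actives have a fitted effect of over 50% in size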
miR-21 reporter: raises the signal of a miR-21 reporter; HeLa miR-21 FLuc reporter, luciferase, 48 h; Potency, µM (highest dose often 38.3 µM), for inactives: at the highest dose reporter change, positive = more light; 340,000 tested, under 10 active; active = well fitted rising curve with a large enough effect; inconclusive = small, poorly fitted or top-dose-only effect; inactive = no such curve, though single readings can be large or run the other way;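 also: % of control where 0% means no effect; miR-21 action dims this reporter so a rising signal means less miR-21 action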
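HeLa cells stably expressing CMV-driven firefly luciferase with a downstream miR-21 binding sequence, endogenously expressing miR-21, were treated with titrations (up to about 40uM final) for 48 hours at 37 degree Celsius. Luciferase luminescence was read after lysis.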
ALDH1A1 inh: blocks purified human ALDH1A1 activity. Purified ALDH1A1, NADH fluorescence, propionaldehyde substrate. Potency, µM (top dose mostly 75.3 µM), inactives show at the highest dose activity, negative = inhibition, actives largely listed as inhibitors. 7.3% of 220,000 active. AID 1030; active means well fitted inhibition curve with a large enough effect, not every such curve was filed as active; inconclusive means small, poorly fitted or top-dose-only effect, or another doubt; inactive means no such curve, though single readings can be large or run the other way;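 further: potency means the concentration at half of the fitted maximal effect; plate controls were no enzyme wells and a reference inhibitor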
Sfp PPTase inh: qHTS Assay for Inhibitors of Bacillus subtilis Sfp phosphopantetheinyl transferase (PPTase) | Biochemical Sfp PPTase activity, qHTS | Potency, µM, without a hit: max response, negative = inhibition, most hits filed as inhibitors | actives 3.5% (n = 310,000) | AID 1490, 2009 | 4'-phosphopantetheinyl transferase ffp (Bacillus subtilis), Q9F4F7; active = well fitted inhibition curve with a large enough effect; inconclusive = small, poorly fitted or top-dose-only effect, or another doubt; inactive = no such curve, though single readings can be large or run the other way;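 note: the enzyme is Sfp with the accession as filed and its product quenches rhodamine fluorescence; potency is the fitted concentration of half-maximal effect; 0% = enzyme reaction without inhibitor and -100% = no enzyme wells; top concentration of the series not given in the record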
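Fluorescence-quenching assay: 15 nM Sfp-PPTase preincubated 15 min at room temperature with compound, then 5 uM rhodamine-CoA and 12.5 uM BHQ-2-labelled YbbR peptide added. Fluorescence (ex 525/em 598 nm) read at start and after 30 min; difference gives rate.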
* = called active by the depositor; [ ] = remark or other dose. An excerpt weighted towards active compounds, which were near 13% of everything screened. Unless noted, the call rests on the fitted dose curve; in most records, active means well fitted curve in the direction sought with a large enough effect; inconclusive means small, poorly fitted or top-dose-only effect, or another doubt; inactive means no such curve, though single readings can be large; an effect the other way counts as inactive or inconclusive.

O=C1c2c(O)cc(O)cc2O[C@H](c2ccc(O)c(O)c2)[C@H]1O was read as G9a inh 10µM*, JMJD2E inh 20µM*, miR-21 reporter -16% and Sfp PPTase inh -2%.
`Cc1cc(NC(=O)C2CCN(S(=O)(=O)c3cccc4nsnc34)CC2)ccc1Br` gave G9a inh -9%[59 µM] and miR-21 reporter 1%.
`Cc1ccc(C2c3c(-c4ccccc4O)n[nH]c3C(=O)N2CCc2ccccc2)cc1` (stereo not given) gave G9a inh 13%[59 µM] and miR-21 reporter inconclusive.
Cn1nc(-c2ccc(C(=O)NC3CCCCC3)cc2)c2ccccc2c1=O was read as G9a inh -10%, miR-21 reporter 4% and Sfp PPTase inh 6%.
C[N+](C)(C)[C@H](Cc1c[nH]c(=S)[nH]1)C(=O)O was read as ALDH1A1 inh 5%[13.5 µM].
Cn1c(=O)c(=O)n(C)c2cc(S(=O)(=O)N3CCCC3C(=O)NCc3cccnc3)ccc21 (stereo not given) was read as G9a inh inconclusive, JMJD2E inh inconclusive, miR-21 reporter 0% and Sfp PPTase inh 15%.
Screening CC1CCN(C(=O)COC(=O)CSc2ccc(C(N)=O)cc2[N+](=O)[O-])CC1 returned G9a inh 5%[2.33 µM].
COc1cc(CC2C(=O)Nc3ccccc32)cc(C)c1O (stereo not given) was read as G9a inh 35µM*, miR-21 reporter -10% and Sfp PPTase inh 7%.
For O=C1Nc2ccccc2C1Cc1ccc(OC(F)(F)F)cc1 (stereo not given) the results were G9a inh 1%, miR-21 reporter 1% and Sfp PPTase inh 23%.
Screening CNC(=O)C1(CC(C)C)C=CCN1C(=O)c1ccccc1 (stereo not given) returned JMJD2E inh 5%, ALDH1A1 inh -1% and Sfp PPTase inh 3%.
For COC(=O)CNC(=O)C1(CC(C)C)C=CCN1C(=O)c1ccccc1 (stereo not given) the results were JMJD2E inh 7%, ALDH1A1 inh 0% and Sfp PPTase inh 26%.
For CC(C)CC1(C(=O)NCC2CC2)C=CCN1C(=O)c1ccccc1 (stereo not given) the results were JMJD2E inh -11%, ALDH1A1 inh 25µM* and Sfp PPTase inh -27%.
For Cc1ccc(CNC(=O)C2(CC(C)C)C=CCN2C(=O)c2ccccc2)o1 (stereo not given) the results were JMJD2E inh 15%, ALDH1A1 inh -7% and Sfp PPTase inh 40µM*.
Cc1ccc(OC(=O)CSc2nnc(-c3ccc4c(c3)OCO4)o2)c(C)c1 was read as G9a inh -24%[59 µM] and miR-21 reporter 12%.
`CN(C)C(=O)CCc1nc2sc3c(c2c(=O)[nH]1)CCCC3` gave G9a inh -7%[59 µM], LMNA splice mod -6%, JMJD2E inh 1%, miR-21 reporter -1%, ALDH1A1 inh -6% and Sfp PPTase inh 14%.
`CN(Cc1ccco1)C(=O)CCc1nc2sc3c(c2c(=O)[nH]1)CCCC3` gave G9a inh 79µM*, miR-21 reporter -4% and Sfp PPTase inh -16%.
Cc1ccc(CN(C)C(=O)CCc2nc3sc4c(c3c(=O)[nH]2)CCCC4)o1 was read as miR-21 reporter 0% and Sfp PPTase inh 50µM*.
For O=C(c1ccc(Cl)cc1Cl)N1CCC(c2nc3c(nnn3Cc3ccco3)c(=O)[nH]2)CC1 the results were G9a inh 45µM*, LMNA splice mod 3%, JMJD2E inh 6%, miR-21 reporter -14%, ALDH1A1 inh 2% and Sfp PPTase inh -22%.
`O=C(NCc1ccco1)c1nc2c(nnn2Cc2cccc(Cl)c2)c(=O)[nH]1` gave G9a inh -13%[12.7 µM], LMNA splice mod -1%, JMJD2E inh 2%, miR-21 reporter -8%, ALDH1A1 inh 28µM* and Sfp PPTase inh -15%.
`Cc1ccc(Cn2nnc3c(=O)[nH]c(C(=O)NCc4ccco4)nc32)cc1` gave G9a inh inconclusive, LMNA splice mod 2%, JMJD2E inh 8%, miR-21 reporter -30%, ALDH1A1 inh 4% and Sfp PPTase inh 2%.
For O=C(c1ccccc1Cl)N1CCCC(c2nc3c(nnn3Cc3ccccc3)c(=O)[nH]2)C1 (stereo not given) the results were G9a inh -36%[59 µM], LMNA splice mod 8%, JMJD2E inh -1%, miR-21 reporter -14%, ALDH1A1 inh -13% and Sfp PPTase inh -3%.
O=C(c1ccccc1)N1CCC(c2nc3c(nnn3Cc3ccco3)c(=O)[nH]2)CC1 was read as G9a inh 17%, LMNA splice mod 1%, JMJD2E inh 4%, miR-21 reporter -10%, ALDH1A1 inh -6% and Sfp PPTase inh 5%.
Screening COc1cccc(Cn2nnc3c(=O)[nH]c(C4CCCN(C(=O)c5ccccc5Cl)C4)nc32)c1 (stereo not given) returned G9a inh 8%, LMNA splice mod 16%, JMJD2E inh 4%, miR-21 reporter -15%, ALDH1A1 inh 7.9µM* and Sfp PPTase inh -21%.
O=c1[nH]c(C2CCCN(S(=O)(=O)c3ccccc3)C2)nc2c1nnn2Cc1ccccc1 (stereo not given) was read as G9a inh 7%[2.33 µM], LMNA splice mod 9%, JMJD2E inh -8%, miR-21 reporter -14%, ALDH1A1 inh 10µM* and Sfp PPTase inh -12%.
`Clc1cccc(-c2ccc(CNCCSc3nnnn3-c3ccccc3)o2)c1` gave G9a inh inconclusive, LMNA splice mod -8%[46 µM] and miR-21 reporter -7%.
COc1ccccc1CNC(=O)C(=O)NCC1CCCN1S(=O)(=O)c1cccs1 (stereo not given) was read as G9a inh -41%.
COc1ccc(Cn2c(SCc3ccc(C(=O)NC(C)c4ccccc4)cc3)nc3cccnc32)cc1 (stereo not given) was read as G9a inh -2%[59 µM] and miR-21 reporter -15%.
For Cc1ccc(S(=O)(=O)NC(C)c2ccccc2)cc1[N+](=O)[O-] (stereo not given) the results were G9a inh 2%, miR-21 reporter -4% and Sfp PPTase inh 12%.
For C/C(=N\NS(=O)(=O)c1ccc([N+](=O)[O-])cc1)c1cccs1 the results were G9a inh 45µM*, JMJD2E inh -2%, miR-21 reporter -15%, ALDH1A1 inh 1% and Sfp PPTase inh 1%.
`C/C(CC(C)C)=N/Nc1ccc([N+](=O)[O-])cc1[N+](=O)[O-]` gave G9a inh 11µM*, JMJD2E inh 4%, miR-21 reporter -2% and Sfp PPTase inh -16%.
